This note sets out measurements from patent publication US9302989B2 (priority 2010, dated 2016).

Protein sequences, listed by entry. Tags and fused reporters are not part of them. Lines headed by an entry give the natural chain unless they say otherwise; changes in a name come on top.
UniProt P43490: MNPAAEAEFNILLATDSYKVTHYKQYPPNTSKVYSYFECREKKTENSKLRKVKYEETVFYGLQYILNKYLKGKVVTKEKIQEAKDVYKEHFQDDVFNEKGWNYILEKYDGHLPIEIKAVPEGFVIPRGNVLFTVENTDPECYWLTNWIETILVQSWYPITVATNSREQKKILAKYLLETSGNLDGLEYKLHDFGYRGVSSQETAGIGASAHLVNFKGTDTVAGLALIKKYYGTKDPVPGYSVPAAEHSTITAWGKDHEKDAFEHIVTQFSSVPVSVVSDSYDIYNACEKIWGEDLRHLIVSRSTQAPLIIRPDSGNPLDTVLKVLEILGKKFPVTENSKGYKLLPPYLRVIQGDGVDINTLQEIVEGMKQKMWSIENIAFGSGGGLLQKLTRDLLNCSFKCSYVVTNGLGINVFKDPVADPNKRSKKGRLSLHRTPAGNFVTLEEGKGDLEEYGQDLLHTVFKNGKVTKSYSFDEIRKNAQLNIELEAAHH

Structures are written as SMILES.

Usually IC50 stands for the concentration that inhibits the measured activity by half.

For the experiment, the target named is NAMPT (Homo sapiens (Human), UniProt P43490). The settings on record: read-out: TR-FRET Binding IC50 (μM) probe 1.
For the compound `O=C(Nc1ccc(C2CCN(C(=O)c3ccccc3)CC2)cc1)N1Cc2ccccc2C1` [Example 407, N-[4-(1-benzoylpiperidin-4-yl)phenyl]-1,3-dihydro-2H-isoindole-2-carboxamide], the IC50 was found to be 0.00145 µM.

Turning to `COc1ccc(CNC(=O)c2ccc(NC(=O)N3Cc4ccccc4C3)cc2)c(OC)c1` [Example 415, N-{4-[(2,4-dimethoxybenzyl)carbamoyl]phenyl}-1,3-dihydro-2H-isoindole-2-carboxamide], the IC50 amounted to 0.0121 µM.

In the case of `CN(C)c1ccc(CCNC(=O)c2ccc(NC(=O)N3Cc4ccccc4C3)cc2)cc1` [Example 113, N-[4-({2-[4-(dimethylamino)phenyl]ethyl}carbamoyl)phenyl]-1,3-dihydro-2H-isoindole-2-carboxamide], the IC50 worked out at 0.0445 µM.

As for `CC(C)CCn1cc(-c2ccc(NC(=O)N3Cc4ccccc4C3)cc2)cn1` [Example 319, N-{4-[1-(3-methylbutyl)-1H-pyrazol-4-yl]phenyl}-1,3-dihydro-2H-isoindole-2-carboxamide], the IC50 was determined as 0.0319 µM.

With `CC[C@H](CO)NC(=O)c1ccc(NC(=O)N2Cc3ccccc3C2)cc1` [Example 258, N-(4-{[(2R)-1-hydroxybutan-2-yl]carbamoyl}phenyl)-1,3-dihydro-2H-isoindole-2-carboxamide], the IC50 came out at 1.52 µM.

On to `O=C(NCCCCC1CCNCC1)N1Cc2ccccc2C1` [Example 352, N-[4-(piperidin-4-yl)butyl]-1,3-dihydro-2H-isoindole-2-carboxamide], for which the IC50 was determined as 1.19 µM.

In the case of `O=C(NCc1ccc(OC(F)(F)F)cc1)c1ccc(NC(=O)N2Cc3ccccc3C2)cc1` [Example 33, N-(4-{[4-(trifluoromethoxy)benzyl]carbamoyl}phenyl)-1,3-dihydro-2H-isoindole-2-carboxamide], the IC50 was 0.015 µM.

As for `O=C(NCc1cccs1)c1ccc(NC(=O)N2Cc3ccccc3C2)cc1` [Example 46, N-{4-[(2-thienylmethyl)carbamoyl]phenyl}-1,3-dihydro-2H-isoindole-2-carboxamide], the IC50 stood at 0.0183 µM.

For the compound `O=C(Nc1ccc(C(=O)N2CCCC[C@H]2CCO)cc1)N1Cc2ccccc2C1` [Example 439, N-(4-{[(2S)-2-(2-hydroxyethyl)piperidin-1-yl]carbonyl}phenyl)-1,3-dihydro-2H-isoindole-2-carboxamide], the IC50 was 1.69 µM.

`O=C(Nc1cnn(Cc2cccc(Cl)c2)c1)c1ccc(NC(=O)N2Cc3ccccc3C2)cc1` [Example 199, N-(4-{[1-(3-chlorobenzyl)-1H-pyrazol-4-yl]carbamoyl}phenyl)-1,3-dihydro-2H-isoindole-2-carboxamide]: the IC50 was found to be 0.179 µM.

On to `O=C(CCc1ccccc1)Nc1ccc(NC(=O)N2Cc3ccccc3C2)cc1` [Example 296, N-{4-[(3-phenylpropanoyl)amino]phenyl}-1,3-dihydro-2H-isoindole-2-carboxamide], for which the IC50 stood at 0.0247 µM.

As to `COCCCNC(=O)c1ccc(NC(=O)N2Cc3ccccc3C2)cc1` [Example 128, N-{4-[(3-methoxypropyl)carbamoyl]phenyl}-1,3-dihydro-2H-isoindole-2-carboxamide], the IC50 was 0.0553 µM.

Turning to `O=C(NCC1CCCOC1)c1ccc(NC(=O)N2Cc3ccccc3C2)cc1` (stereo not shown) [Example 420, N-{4-[(tetrahydro-2H-pyran-3-ylmethyl)carbamoyl]phenyl}-1,3-dihydro-2H-isoindole-2-carboxamide], the IC50 came to 0.0182 µM.

Turning to `O=C(Nc1cnn(-c2ccc(F)cc2)c1)c1ccc(NC(=O)N2Cc3ccccc3C2)cc1` [Example 234, N-(4-{[1-(4-fluorophenyl)-1H-pyrazol-4-yl]carbamoyl}phenyl)-1,3-dihydro-2H-isoindole-2-carboxamide], the IC50 was found to be 0.43 µM.

With `O=C(Nc1ccc2nc(N3CCNCC3)[nH]c2c1)N1Cc2ccccc2C1` [Example 423, N-[2-(piperazin-1-yl)-1H-benzimidazol-6-yl]-1,3-dihydro-2H-isoindole-2-carboxamide], the half-inhibitory concentration (IC50) turned out to be 12.5 µM.

Turning to `O=C(NCCc1cccnc1)c1ccc(NC(=O)N2Cc3ccccc3C2)cc1` [Example 144, N-(4-{[2-(pyridin-3-yl)ethyl]carbamoyl}phenyl)-1,3-dihydro-2H-isoindole-2-carboxamide], the IC50 worked out at 0.0666 µM.

On to `O=C(Nc1ccc(C(=O)N2CCC(c3ccccc3F)C2)cc1)N1Cc2ccccc2C1` (stereo not shown) [Example 147, N-(4-{[3-(2-fluorophenyl)pyrrolidin-1-yl]carbonyl}phenyl)-1,3-dihydro-2H-isoindole-2-carboxamide], for which the IC50 worked out at 0.0701 µM.

Take `O=C(NCC1CCOCC1)c1ccc(NC(=O)N2Cc3ccccc3C2)cc1` [Example 421, N-{4-[(tetrahydro-2H-pyran-4-ylmethyl)carbamoyl]phenyl}-1,3-dihydro-2H-isoindole-2-carboxamide]: the IC50 amounted to 0.0404 µM.

On to `O=C(Nc1ccccc1F)c1ccc(NC(=O)N2Cc3ccccc3C2)cc1` [Example 143, N-{4-[(2-fluorophenyl)carbamoyl]phenyl}-1,3-dihydro-2H-isoindole-2-carboxamide], for which the IC50 is 0.0665 µM.

Regarding `O=C(NCCc1ccccc1)c1ccc(NC(=O)N2Cc3ccccc3C2)cc1` [Example 139, N-{4-[(2-phenylethyl)carbamoyl]phenyl}-1,3-dihydro-2H-isoindole-2-carboxamide], the IC50 stood at 0.0638 µM.

Regarding `O=C(Nc1ccc(C(=O)N2CCN(CCO)CC2)cc1)N1Cc2ccccc2C1` [Example 202, N-(4-{[4-(2-hydroxyethyl)piperazin-1-yl]carbonyl}phenyl)-1,3-dihydro-2H-isoindole-2-carboxamide], the IC50 was determined as 0.192 µM.

In the case of `O=C(Nc1ccc(C(=O)N2CCN(c3ncccn3)CC2)cc1)N1Cc2ccc(F)cc2C1` [Example 19, 5-fluoro-N-(4-{[4-(pyrimidin-2-yl)piperazin-1-yl]carbonyl}phenyl)-1,3-dihydro-2H-isoindole-2-carboxamide], the IC50 came to 0.011 µM.

For the compound `CN1CCN(CCC(=O)Nc2ccc(NC(=O)N3Cc4ccccc4C3)cc2)CC1` [Example 312, N-(4-{[3-(4-methylpiperazin-1-yl)propanoyl]amino}phenyl)-1,3-dihydro-2H-isoindole-2-carboxamide], the concentration for half-maximal inhibition (IC50) amounted to 0.114 µM.

Regarding `O=C(NCCc1ccccn1)c1ccc(NC(=O)N2Cc3ccccc3C2)cc1` [Example 179, N-(4-{[2-(pyridin-2-yl)ethyl]carbamoyl}phenyl)-1,3-dihydro-2H-isoindole-2-carboxamide], the IC50 came out at 0.128 µM.

Consider `O=C(NCCc1ccc(O)c(O)c1)c1ccc(NC(=O)N2Cc3ccccc3C2)cc1` [Example 81, N-(4-{[2-(3,4-dihydroxyphenyl)ethyl]carbamoyl}phenyl)-1,3-dihydro-2H-isoindole-2-carboxamide], for which the IC50 came to 0.0301 µM.

On to `CC(C)C(=O)N1CC=C(c2ccc(NC(=O)N3Cc4ccccc4C3)nc2)CC1` [Example 453, N-(1′-isobutyryl-1′,2′,3′,6′-tetrahydro-3,4′-bipyridin-6-yl)-1,3-dihydro-2H-isoindole-2-carboxamide], for which the IC50 came out at 0.0527 µM.

With `O=C(Nc1ccc(C(=O)N2CCN(c3cccnn3)CC2)cc1)N1Cc2ccc(F)cc2C1` [Example 15, 5-fluoro-N-(4-{[4-(pyridazin-3-yl)piperazin-1-yl]carbonyl}phenyl)-1,3-dihydro-2H-isoindole-2-carboxamide], the IC50 came out at 0.00991 µM.

For the compound `O=C(Nc1ccc(-c2cnn(CCO)c2)cc1)N1Cc2ccccc2C1` [Example 324, N-{4-[1-(2-hydroxyethyl)-1H-pyrazol-4-yl]phenyl}-1,3-dihydro-2H-isoindole-2-carboxamide], the IC50 worked out at 0.333 µM.

As to `O=C(NCCCN1CCCCC1)c1ccc(NC(=O)N2Cc3ccccc3C2)cc1` [Example 201, N-(4-{[3-(piperidin-1-yl)propyl]carbamoyl}phenyl)-1,3-dihydro-2H-isoindole-2-carboxamide], the concentration for half-maximal inhibition (IC50) is 0.189 µM.

As for `Cc1ccc2c(c1)CN(C(=O)Nc1ccc(C(=O)NCC3CCCC3)cc1)C2` [Example 26, N-{4-[(cyclopentylmethyl)carbamoyl]phenyl}-5-methyl-1,3-dihydro-2H-isoindole-2-carboxamide], the IC50 was determined as 0.0126 µM.

As for `O=C(NCCCN1CCOCC1)c1ccc(NC(=O)N2Cc3ccccc3C2)cc1` [Example 196, N-(4-{[3-(morpholin-4-yl)propyl]carbamoyl}phenyl)-1,3-dihydro-2H-isoindole-2-carboxamide], the IC50 came to 0.176 µM.
